# Screening results from PubChem BioAssay.
# The list is not random: actives were taken first. Their share in the collection is about 1.7%.
# miR-21 reporter: miR-21 reporter, rising signal | AID 2288 | HeLa miR-21 FLuc reporter, luciferase, 48 h | 340,000 tested, under 10 active | Potency, µM (doses to about 38.3 µM), for inactives: at the top dose reporter change, positive = more light; active = well fitted rising curve with a large enough effect; inconclusive = small, poorly fitted or top-dose-only effect; inactive = no such curve, though single readings can be large or run the other way;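 note: % of control where 0% means no effect; miR-21 action dims this reporter so a rising signal means less miR-21 action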
#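 Compounds were titrated across several concentrations (up to approximately 40 uM) and incubated 48 hours with HeLa miR-21-FLuc reporter cells (miR-21 target sequence downstream of FLuc, endogenous miR-21). Readout was firefly luciferase luminescence after lytic detection reagent.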
# Pin1 inhibitor: human Pin1 inhibition | Q13526 | 390,000 compounds, 0.009% hits | Pin1 FP peptide displacement, HiFluor488, 10 min | Potency, µM (highest dose often 115 µM), for inactives: at the highest dose activity, negative = inhibition, usual class: inhibitors; active means well fitted inhibition curve with a large enough effect in the polarisation, with a control signal flat, not every such curve was filed as active; inconclusive means small, poorly fitted or top-dose-only effect, or effect the other way, or a change in a side signal; inactive means no such curve, though single readings can be large or run the other way; the % refers to the polarisation; further: potency means the concentration at half of the fitted maximal effect; on the % scale 0 is the no-effect control and ±100 the full control effect
# PTHR1 agonist: activates the human parathyroid hormone receptor PTHR1; Q03431; HEK293 GP2 PTHR1 cells, GloSensor cAMP luminescence, 1 h; Potency, µM (top dose mostly 115 µM), inactives show at the top dose activation, actives largely listed as activators; 410,000 compounds, 0.075% hits; AID 743266; further: potency means the concentration at half of the fitted maximal effect; nearly all actives have a fitted effect of over 55% in size
#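 HEK-293-derived GP2 cells expressing PTHR1 and a GloSensor cAMP reporter, 3,000/well, plated overnight, given luciferin plus IBMX (each 0.5 mM as added) for 1 h at 37 °C, then compound for 1 h at 37 °C. Luminescence was read after 15 min at room temperature.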
# GLP1R cytotox: cytotoxic in the GLP-1 receptor inverse agonist counter-screen; HEK293 cAMP-luciferase reporter cells, luminescence, 24 h; Potency, µM (doses to about 38.3 µM), for the others: at the highest dose activity change, negative = inhibition, actives largely listed as inhibitors; 410,000 compounds, 0.13% hits;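 further: loss of luciferase light is scored as toxicity; potency means the concentration at half of the fitted maximal effect; on the % scale 0 is the no-effect control and ±100 the full control effect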
#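 Seeding density was 200 cells/uL; after overnight-length (12 h) culture, 23 nL compounds went on for 24 h at 37 °C. Readout used a luciferase detection reagent, luminescence taken after 12 min at room temperature.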
# GLP-1R agonist: agonists of human GLP-1 receptor; AID 624172; 380,000 compounds, 0.007% hits; Potency, µM (titrated, usually from 45.6 µM), inactives show at the top dose activation, most hits filed as activators; P43220; HEK293 GLP-1R CRE-luciferase, luminescence, 4-6 h; cells express a hypersensitive GLP-1R form; further: potency means the concentration at half of the fitted maximal effect; % of control where 0% means no effect
# GLP-1R inv ag: acts as inverse agonist at human GLP-1 receptor | P43220 | HEK293 GLP-1R CRE-luciferase, luminescence, 24 h; GLP-1R form is constitutively active | Potency, µM (top dose mostly 38.3 µM), for inactives: at the top dose activity change, negative = inhibition, hits mostly inhibitors | 410,000 compounds, 1.6% hits | AID 624417; further: potency means the concentration at half of the fitted maximal effect; on the % scale 0 is the no-effect control and ±100 the full control effect; nearly all actives have a fitted effect of over 55% in size
#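 GLP-1R inverse agonism mode: basal reporter luminescence in engineered HEK293 cells measured after one day of compound exposure at 37 deg C, with a 12 min room-temperature detection step.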
# Starred values were filed as active, the others as inactive; i = inactive; ? = inconclusive; · = no result given; [ ] = remark or other dose. Unless noted, the call rests on the fitted dose curve; in most records, active means well fitted curve in the direction sought with a large enough effect; inconclusive means small, poorly fitted or top-dose-only effect, or another doubt; inactive means no such curve, though single readings can be large; an effect the other way counts as inactive or inconclusive.
No.	Molecule	miR-21 reporter	Pin1 inhibitor	PTHR1 agonist	GLP1R cytotox	GLP-1R agonist	GLP-1R inv ag
1	Cc1ccc(Cl)cc1NC(=O)CN1C(=O)C(C)(C)c2cc(S(=O)(=O)N3CCCCC3)ccc21	30%	10%	-1%	6%	·	?
2	COc1ccc(Cl)cc1NC(=O)CN1Cc2ccccc2C1=O	3%	-4%	i	3%	·	-24%
3	CCNc1nc(C#N)nc(NCC)n1	·	9%	·	·	·	·
4	COc1ccc(C(=O)/C=C/c2ccccc2)c(OC)c1	16%	4%	-40%	-16%	1%	10µM*
5	COc1ccccc1C(O)c1nccn1Cc1ccccc1 (stereo not given)	·	2%	·	·	·	·
6	CCOC(=O)C(=O)N/N=C/c1ccc(F)cc1	12%	-18%	i	-2%	1%	5%
7	CCOC(=O)C(=O)NNc1ccc(F)cc1	13%	2%	i	-28%	-4%	0.89µM*
8	COc1cccc(NC(=O)Cn2c(=O)n(Cc3ccc(C(=O)NCc4ccc5c(c4)OCO5)cc3)c(=O)c3ccccc32)c1	-2%	23%	i	0%	1%	1%
9	O=C(NC(=S)Nc1ccc(Br)cn1)c1cccs1	-60%	9%	-4%	?	3%	?
10	S=C(Nc1ccccc1)Nc1ccc(Br)cn1	-13%	-1%	-8%	3.5µM*	6%	?
11	Cc1ccc(C(c2sc3nc(C)nn3c2O)N2CCN(c3ccccc3F)CC2)cc1 (stereo not given)	-7%	0%	3%[57.5 µM]	-16%	-7%	8.9µM*
12	Cc1ccc(C(c2sc3nc(C)nn3c2O)N2CCN(CCO)CC2)cc1 (stereo not given)	2%	-4%	-21%	-13%	6%	9%
13	CC[C@H](C)[C@@H]1NC(=O)[C@@H](CC(C)C)NC(=O)[C@H](C(C)C)NC(=O)[C@H]2CSSC[C@H](NC1=O)C(=O)N2	·	·	-21%	?	-13%	4µM*
14	COc1ccccc1/C=C/C(=O)c1cc(Br)ccc1OC(=O)c1ccco1	·	14%	-20%[57.5 µM]	?	-13%	5µM*
15	O=C(CC(c1ccccc1)c1ccccc1O)NCCc1ccccc1 (stereo not given)	8%	6%	-32%	4%	5%	?
16	O=C(CC(c1ccccc1)c1ccccc1O)NCc1ccccc1Cl (stereo not given)	3%	3%	-29%	-15%	-10%	10µM*
17	O=C(CC(c1ccccc1)c1ccccc1O)NCc1ccco1 (stereo not given)	-3%	1%	-36%[57.5 µM]	-7%	-8%	?
18	O=C(CC(c1ccccc1)c1cc(Br)ccc1O)NCc1ccco1 (stereo not given)	19%	4%	-27%	-10%	-18%	11µM*
19	Cc1cccc(CNC(=O)c2cccc(NC(=O)N3CCSc4ncccc43)c2)c1	5%	-4%	-14%	-5%	·	6%
20	Fc1ccc(Oc2nc(-c3ccccn3)nc3ccccc23)cc1	8%	-2%	-2%	?	12%	2.8µM*
21	c1ccc(Oc2nc(-c3ccccn3)nc3ccccc23)cc1	16%	-2%	-21%	?	12%	?
22	COc1cccc(CN2C(=O)c3ccccc3Sc3ccc(C(=O)NCCc4ccc(Cl)cc4)cc32)c1	9%	31%	-18%	0%	·	15%
23	Cc1cccc(Nc2nc(N3CCOCC3)nc(N3CCOCC3)n2)c1	-4%	2%	?	41%	4%	5.6µM*
24	c1ccc(Nc2nc(N3CCOCC3)nc(N3CCOCC3)n2)cc1	9%	4%	-41%	14%	-4%	?
25	Cc1cccc(Nc2nc(Nc3cccc(C)c3)nc(N3CCOCC3)n2)c1	-11%	-3%	-1%	1%	·	4.5µM*
26	Cc1cccc(Nc2nc(N3CCCCC3)nc(N3CCCCC3)n2)c1	-3%	-10%	i	0%	3%	?

# An excerpt from above in order of formula weight, smallest number first.
No.	Molecule	miR-21 reporter	Pin1 inhibitor	PTHR1 agonist	GLP1R cytotox	GLP-1R agonist	GLP-1R inv ag
2	COc1ccc(Cl)cc1NC(=O)CN1Cc2ccccc2C1=O	3%	-4%	i	3%	·	-24%
12	Cc1ccc(C(c2sc3nc(C)nn3c2O)N2CCN(CCO)CC2)cc1 (stereo not given)	2%	-4%	-21%	-13%	6%	9%
11	Cc1ccc(C(c2sc3nc(C)nn3c2O)N2CCN(c3ccccc3F)CC2)cc1 (stereo not given)	-7%	0%	3%[57.5 µM]	-16%	-7%	8.9µM*
